## Binding of CDR-mutated scFvs to a peptide of the spike HR2 region

Values reported by Engelhart et al. 2022, doi:10.1038/s41597-022-01779-4 (FLAb copy).

Binding partner: SARS-CoV-2 spike HR2 peptide, sequence PDVDLGDISGINAS.

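The starting antibody came from a phage panning campaign against this peptide. Variants in AAYL50 differ from the parent at up to three CDR positions; double and triple changes were sampled at random. Affinity was read by AlphaSeq, a pooled yeast mating assay with surface-displayed partners. After mating in shaken culture at 30 °C for 16 h, diploids were selected and their barcode pairs sequenced. Scores were corrected for input abundance and mapped to Kd with protein pairs of known affinity run in the same pool. There are three technical replicates.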

Parent: Ab-14, a human scFv built as VH, three GGGGS repeats, VL. Only the CDRs of the light chain vary.
VH: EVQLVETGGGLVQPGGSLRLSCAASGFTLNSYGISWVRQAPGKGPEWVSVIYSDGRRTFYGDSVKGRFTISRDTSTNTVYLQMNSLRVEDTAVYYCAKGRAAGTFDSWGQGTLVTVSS
VL: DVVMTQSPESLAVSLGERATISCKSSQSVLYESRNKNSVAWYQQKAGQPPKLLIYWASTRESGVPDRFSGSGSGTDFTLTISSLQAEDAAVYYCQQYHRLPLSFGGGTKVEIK

Positions count from residue 1 of the parent VL; N37K puts K in place of N.
Affinities are written as log10 Kd with Kd in nM; a lower number is a better binder.
The mean shown is taken over the replicates in which the pair was detected.
"nd" marks a missing value. The strain was present, yet no cells mated with the target were sequenced in any replicate, which points to weak or no binding.

changes	mean log10 Kd (nM)	seen in	signal with controls
N37K/R60H/Y97L	nd	0/3	3/9
R60P/Q95P/L102V	1.78	3/3	1/9
E32S/N37P/Y97L	nd	0/3	2/9
A57Y/R60V	nd	0/3	0/9
Q27F/T59H/P101K	nd	0/3	0/9
S58I/S62C/P101M	nd	0/3	0/9
S28P/V29M/Q95T	nd	0/3	1/9
E32M/V39Q/R99S	nd	0/3	0/9
W56F/T59L/P101D	3.03	3/3	0/9
E61D/Q96I/P101N	0.95	3/3	1/9
N35L/R60G/P101M	nd	0/3	0/9
T59D/S62F/R99Y	2.28	3/3	6/9
S33R/S58C/H98W	3.90	2/3	0/9
S28Y/S33K/Q95H	5.03	1/3	1/9
V29A/K36V/Q96C	0.37	3/3	0/9
R60N/E61A/Q96N	4.60	1/3	2/9
V39D/E61D/R99P	nd	0/3	0/9
R34S/N35Y/R60V	2.99	3/3	0/9
N35P/A40Y/Q95I	nd	0/3	1/9
N37W/R99L/L102V	nd	0/3	0/9
K36F/Y97C/L102R	nd	0/3	1/9
V39M/L100M/L102C	1.84	3/3	1/9
A57G/L100V	nd	0/3	0/9
N35I/Q95L/H98Y	0.77	3/3	0/9
Q27M/R34P/S103E	2.34	3/3	6/9
S25W/W56H/L100F	1.03	3/3	0/9
H98K/L100W/P101I	0.69	3/3	0/9
V39S/Q95Y/Q96A	3.76	1/3	5/9
L30G/S38C/S103F	4.44	3/3	3/9
S26A/Y31I/V39G	nd	0/3	1/9
Q27S/N37V/L100W	5.71	2/3	2/9
S26R/R34D/S58Q	1.48	3/3	0/9
L30P/P101W/S103Y	nd	0/3	0/9
Y31N/S33T/A40M	nd	0/3	3/9
S33H/A57E/Y97R	1.94	3/3	4/9

Further variants, results first:

mean log10 Kd (nM)	seen in	signal with controls	changes
nd	0/3	1/9	Y31C/R60V/P101H
nd	0/3	6/9	K24A/N37D/V39T
3.82	1/3	3/9	K24L/S26A
nd	0/3	2/9	S26F/N37I/H98C
2.39	3/3	0/9	R34V/R60S/S103T
4.71	1/3	1/9	N35Y/A40Q/A57N
nd	0/3	1/9	V29C/A40I/R60S
0.64	3/3	1/9	V29M/L30M/Y31T
nd	0/3	0/9	V39A/E61T/S103D
0.88	3/3	3/9	K24N/R34M/S62V
4.85	2/3	2/9	N37T/S38Y
nd	0/3	0/9	S25N/L30P/A40G
3.63	2/3	1/9	S33Y/N35Q/R99A
2.58	3/3	4/9	S25N/S28P/N35R
nd	0/3	0/9	V29L/R34S/K36V
5.12	3/3	3/9	S58W/R60A/Q96N
2.93	3/3	1/9	K24W/S33N/H98D
2.12	3/3	4/9	K36M/N37D/S58Q
1.40	3/3	5/9	Q27P/L30S/T59A
nd	0/3	0/9	A57Y/Q95I/Q96I
4.17	1/3	1/9	A40S/A57D/Y97D
4.80	2/3	4/9	Y31V/S38E/A57D
nd	0/3	1/9	S26M/S33H/P101W
nd	0/3	3/9	E32R/V39R/Q95W
5.54	1/3	0/9	A40P/Q95D/S103C
nd	0/3	1/9	S26V/Q96V
1.45	3/3	3/9	V29E/A57M
4.89	2/3	4/9	W56P/S62N/L102K
1.82	3/3	1/9	V29L/K36W/S62Q
3.44	2/3	0/9	S26W/R34T/K36N
0.72	3/3	1/9	V29E/Q96E/L102R
1.91	3/3	2/9	W56A/S62G/Y97K
3.67	1/3	2/9	S25I/A40L
2.29	3/3	2/9	R34K/Y97F/P101G
4.15	1/3	1/9	S25A/S28A/Y31I
1.93	3/3	0/9	Y31F/S62P/H98Y

Nonspecific signal, from three strains lacking the peptide, appeared in 18% of pairings of library AAYL50, centred on 4.19 (5% of these signals below 2.99); values are not corrected for it. The control count says in how many pairings with the empty strains this scFv gave a signal.